Antibody variant affinities, Ab-14 light chain, assay B

Reference: Li et al. 2023, doi:10.1038/s41467-023-39022-2. File: FLAb, binding data.

Binding partner: SARS-CoV-2 spike HR2 peptide, sequence PDVDLGDISGINAS.

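Phage display of a naive human antibody library on the peptide gave the parent. These sequences belong to a second round, designed from the earlier measurements on random variants of the parent. Their group label is 14L_GP_Gen (GP: Gaussian process model; Gen: genetic algorithm; a sequence that several methods proposed may carry one label only). The assay is AlphaSeq: two haploid yeast populations carry antibody and antigen on their surface. Pairs that bind mate more often; barcode pairs of the diploids are counted by sequencing. Read counts were normalised to the haploid input and turned into Kd by a linear fit to BCL2-family pairs of known affinity, for each replicate. There are six technical replicates.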

Parent: Ab-14, a human scFv built as VH, a 15-residue (Gly4Ser)3 linker, VL. Only the CDRs of the light chain vary.
VH: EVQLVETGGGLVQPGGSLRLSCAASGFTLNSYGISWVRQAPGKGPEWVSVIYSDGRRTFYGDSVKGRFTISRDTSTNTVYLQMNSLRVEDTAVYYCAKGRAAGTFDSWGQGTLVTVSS
VL: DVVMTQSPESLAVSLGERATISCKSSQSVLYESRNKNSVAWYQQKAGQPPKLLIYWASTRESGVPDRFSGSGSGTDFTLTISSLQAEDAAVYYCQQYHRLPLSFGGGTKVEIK

Changes read parent residue, position, new residue, counted from the first residue of the VL shown.
Values are log10 of the apparent Kd in nM; lower means stronger binding.
An entry "ND" has no value in the source: the pair was not observed among the diploids in that replicate. This suggests poor binding but is not conclusive.
Of ten entries with the parent sequence, four were seen in most replicates (averages 0.34 to 2.37), three in one and three in none, so single entries are noisy.

changes | replicates, log10 nM | control signals
S25L+V29Q+L30G+W56N+T59Q | -0.13 -0.15 -0.24 -0.38 -0.12 -0.23 | 0/18
S25V+W56N+T59Q+E61L | 0.92 0.57 0.29 0.78 0.43 0.63 | 1/18 (1.62)
S25L+W56G+Q96S | -0.10 -0.15 -0.24 -0.28 -0.22 -0.07 | 3/18 (3.01)
S25L+Y31M+K36S+W56E | -0.41 -0.22 -0.63 -0.42 -0.51 -0.37 | 0/18
S25L+Y31M+K36S+W56D | 0.05 -0.13 -0.14 -0.23 -0.31 -0.11 | 2/18 (4.01)
S25L+W56S+E61S | -0.25 -0.37 -0.31 -0.48 -0.37 -0.23 | 1/18 (2.50)
S25L+V29N+W56N+S62V | -0.09 -0.10 -0.17 -0.26 -0.29 0.03 | 1/18 (2.93)
S25L+W56E+E61C+S62M | 0.01 -0.13 -0.25 -0.11 -0.24 -0.19 | 0/18
S25L+V29Y+W56Q | -0.20 -0.34 -0.23 -0.45 -0.36 -0.04 | 0/18
S25L+W56D+Q96S | -0.08 -0.22 -0.33 -0.26 -0.24 -0.14 | 3/18 (2.72)
S25L+V29F+L30D+W56N | -0.03 -0.04 -0.23 -0.49 -0.51 -0.11 | 1/18 (2.20)
S25L+S26Q+V29Q+W56H | -0.05 -0.21 -0.18 -0.17 -0.26 -0.08 | 1/18 (2.71)
K24Y+S25L+W56D | 0.24 0.05 0.09 -0.01 -0.01 0.21 | 3/18 (3.41)
S25L+V29Q+W56N+T59K | 0.97 0.51 0.75 0.96 0.94 0.87 | 1/18 (2.21)
S25L+W56N+S103M | -0.01 -0.45 -0.30 -0.42 -0.36 -0.16 | 1/18 (2.41)
S25F+V29W+W56D+T59Q | -0.31 -0.32 -0.33 -0.46 -0.46 -0.24 | 2/18 (3.42)
S25L+V29G+W56N+S62V | -0.08 -0.66 -0.63 -0.84 -0.77 -0.34 | 0/18
S25V+S26Q+E32Q+W56E | 0.06 -0.12 -0.28 -0.04 -0.15 -0.05 | 5/18 (2.97)
S25L+S26Q+W56E+S62M | -0.22 -0.21 -0.43 -0.34 -0.32 -0.17 | 2/18 (2.61)
S25L+V29E+W56N+S62K | 0.00 -0.21 -0.29 -0.18 -0.31 -0.04 | 2/18 (2.90)
S25Y+W56N+T59Q | 0.45 0.60 0.33 0.47 0.55 0.33 | 1/18 (2.07)
S25L+S26Q+L30P+W56N+S62E | -0.03 -0.37 -0.25 -0.45 -0.36 0.10 | 0/18
S25I+V29E+W56N+A57G | 0.10 0.24 -0.01 -0.01 -0.02 0.21 | 4/18 (2.63)
S25I+V29E+W56N+E61C | -0.32 -0.70 -0.39 -0.64 -0.28 -0.17 | 0/18
S25L+W56N+E61L+S62W | -0.41 -0.27 -0.39 -0.28 -0.34 -0.21 | 1/18 (2.66)
S25L+S26Y+N35M+W56N | -0.02 -0.14 -0.18 -0.21 -0.16 0.04 | 1/18 (3.14)
S25L+S26Q+V29W+W56N+T59Q+Q96D | -0.08 -0.12 -0.12 -0.33 -0.43 -0.08 | 1/18 (2.76)
S25L+S28Q+V29D+W56N | -0.57 -0.63 -0.69 -0.64 -0.79 -0.61 | 0/18
S25L+S26H+W56N+T59Q | -0.15 0.08 -0.21 -0.01 -0.28 0.09 | 0/18
S25L+S26Q+V29W+W56E+E61L | 0.38 0.20 0.29 0.26 0.27 0.25 | 2/18 (3.08)
S25L+S26D+W56N | -0.44 -0.43 -0.61 -0.79 -0.56 -0.56 | 0/18
S25L+S26D+V29Q+W56E | -0.32 -0.37 -0.46 -0.45 -0.39 -0.23 | 3/18 (2.51)
S25L+L30Q+W56N+T59Q | 0.25 0.37 0.27 0.34 0.29 0.63 | 0/18
S25L+S26E+V29Y+W56N | -0.17 -0.27 -0.37 -0.39 -0.40 -0.09 | 0/18
S25L+S26Q+V29N+W56Q | -0.13 0.48 0.36 0.50 0.41 0.38 | 0/18
S25M+S26E+W56N | -0.01 -0.28 -0.41 -0.05 0.01 -0.20 | 0/18
S25V+S26M+V29H+W56N | 0.10 -0.03 -0.30 -0.36 -0.20 -0.22 | 0/18
S25I+W56D+Q96A | 0.10 0.23 0.09 -0.09 -0.25 0.32 | 1/18 (3.80)
S25I+S28Q+V29W+W56N | -0.09 -0.25 -0.33 -0.45 -0.17 -0.06 | 0/18
S25L+V29M+W56N+S103T | -0.47 -0.38 -0.29 -0.44 -0.26 -0.44 | 1/18 (2.20)
W56N+S62Q | 1.25 0.56 ND 1.64 1.03 1.66 | 1/18 (3.22)
S25L+S26D+W56G | -0.26 -0.24 -0.33 -0.35 -0.46 -0.19 | 4/18 (2.87)
S25L+S26Q+V29Q+W56N+E61M | 0.56 0.47 0.68 0.32 0.37 0.50 | 2/18 (2.81)
K24Y+S25L+W56E | 0.49 0.19 0.30 0.26 0.40 0.36 | 0/18
S25L+V29E+L30E+W56N+E61L | -0.14 -0.25 -0.35 -0.31 -0.27 -0.10 | 2/18 (3.22)
S25L+S26Q+V29E+W56N+Q96D | 0.10 -0.06 0.07 -0.14 -0.06 0.01 | 1/18 (2.16)
S25F+K36G+W56N | 0.08 -0.22 0.39 -0.31 0.15 0.02 | 0/18
S25V+W56N+S62M | -0.10 -0.28 -0.28 -0.37 -0.30 -0.23 | 1/18 (4.68)
S25L+S33Q+K36C+W56N | 0.07 0.22 -0.15 -0.06 0.09 0.31 | 0/18

The closing 4 entries, repeated:

| changes | replicates, log10 nM | control signals |
|---|---|---|
| S25L+S26Q+V29E+W56N+Q96D | 0.10 -0.06 0.07 -0.14 -0.06 0.01 | 1/18 (2.16) |
| S25F+K36G+W56N | 0.08 -0.22 0.39 -0.31 0.15 0.02 | 0/18 |
| S25V+W56N+S62M | -0.10 -0.28 -0.28 -0.37 -0.30 -0.23 | 1/18 (4.68) |
| S25L+S33Q+K36C+W56N | 0.07 0.22 -0.15 -0.06 0.09 0.31 | 0/18 |

The authors averaged sequences with at least three values out of six and counted those with two or fewer as poor binders.
As a blank, each scFv also met three strains without target: over all light chain designs, 4% of these pairings were detected, typically at 2.64 and seldom below 1.59. The control count says in how many pairings with the empty strains this scFv gave a signal, with their mean in brackets.
The range of this assay differs from that of the first round, and the authors advise against merging the two.